Measurements as given in patent US8691813B2, “Indole and benzoxazine derivatives as modulators of metabotropic glutamate receptors” (Janssen Pharmaceuticals, Inc., priority 2008, dated 2014).

Chains of the proteins cited; added tags and fusions are not shown. Residues count along the entry.
UniProt Q14416, 19-872 limits assumed: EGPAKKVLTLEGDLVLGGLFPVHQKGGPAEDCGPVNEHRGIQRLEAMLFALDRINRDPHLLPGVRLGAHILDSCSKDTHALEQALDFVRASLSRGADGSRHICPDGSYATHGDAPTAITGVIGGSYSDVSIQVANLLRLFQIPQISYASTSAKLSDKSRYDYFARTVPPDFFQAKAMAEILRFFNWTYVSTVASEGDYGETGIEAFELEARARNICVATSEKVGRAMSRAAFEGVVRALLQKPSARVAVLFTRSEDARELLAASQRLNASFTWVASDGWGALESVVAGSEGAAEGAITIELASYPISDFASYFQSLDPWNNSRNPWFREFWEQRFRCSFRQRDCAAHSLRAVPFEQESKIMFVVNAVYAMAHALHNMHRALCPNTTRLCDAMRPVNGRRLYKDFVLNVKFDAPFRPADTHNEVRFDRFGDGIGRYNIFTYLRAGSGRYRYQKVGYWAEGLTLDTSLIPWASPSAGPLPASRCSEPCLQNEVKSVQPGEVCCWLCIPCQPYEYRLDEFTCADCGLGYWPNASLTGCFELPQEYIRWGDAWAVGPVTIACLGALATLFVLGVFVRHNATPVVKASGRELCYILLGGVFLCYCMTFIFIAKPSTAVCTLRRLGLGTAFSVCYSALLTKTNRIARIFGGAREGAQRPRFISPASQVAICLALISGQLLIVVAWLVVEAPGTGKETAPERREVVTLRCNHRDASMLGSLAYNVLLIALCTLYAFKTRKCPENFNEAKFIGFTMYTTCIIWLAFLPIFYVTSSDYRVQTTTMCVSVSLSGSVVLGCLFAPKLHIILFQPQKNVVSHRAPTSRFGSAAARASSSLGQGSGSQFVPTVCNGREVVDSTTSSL

Target: human mGluR2 (Homo sapiens, UniProt Q14416)
Assay: [35S]GTPγS binding assay (PAM assay) using membranes from CHO cells transfected with the human mGluR2 receptor
Settings: in presence of glutamate at predetermined EC25 concentration; membranes containing human mGluR2; averages of duplicate values of 11-concentration response curves

Row | Compound | GTPγS -hR2 PAM pEC50
1 | N#Cc1c(-c2ccc3c(c2)OCCN3C2CCOCC2)ccn2c(CC(F)(F)F)cnc12 | 6.24
2 | N#Cc1c(-c2ccc3c(c2)OCCN3)ccn2c(CC(F)(F)F)cnc12 | 5.78
3 | Cc1c[nH]c2ccc(-c3ccn4c(CC(F)(F)F)cnc4c3C#N)cc12 | 6.27
